Laboratory results published in ChEMBL document CHEMBL1133039, “Stability of bioreductive drug delivery systems containing melphalan is influenced by conformational constraint and electronic properties of substituents” (2000).

Columns and labels:
[1] = Degradation under physiological pH 7.4; details: buffer
[2] = Degradation under physiological pH 7.4 in the presence of glutathione; details: gsh
[3] = Degradation under physiological pH 9.0; details: buffer
[4] = Degradation under physiological pH 9.0; Instantaneous; details: buffer

SMILES	T1/2 [1]	T1/2 [2]	T1/2 [3]	T1/2 [4]
COC(=O)C(Cc1ccc(N(CCCl)CCCl)cc1)NC(=O)CC(C)(C)C1=C(C)C(=O)C(C)=C(Br)C1=O (stereo not drawn)	1.13 h	< 0.0167 h	< 1 min	
COC(=O)C(N)Cc1ccc(N(CCCl)CCCl)cc1 (stereo not drawn)	0.617 h	0.65 h		Instantaneous
COC(=O)C(Cc1ccc(N(CCCl)CCCl)cc1)NC(=O)CC(C)(C)C1=C(C)C(=O)C(C)=C(C)C1=O (stereo not drawn)	7.97 h	3.37 h	6.32 min	
COC(=O)C(Cc1ccc(N(CCCl)CCCl)cc1)NC(=O)CC(C)(C)C1=C(C)C(=O)C(C)=C(C2=CC=C2)C1=O (stereo not drawn)	1.53 h	1.4 h	1 min	
CNC1=C(C)C(=O)C(C)=C(C(C)(C)CC(=O)NC(Cc2ccc(N(CCCl)CCCl)cc2)C(=O)OC)C1=O (stereo not drawn)	1.45 h	2.23 h	1.22 min	
COC(=O)C(Cc1ccc(N(CCCl)CCCl)cc1)NC(=O)CC(C)(C)C1=C(C)C(=O)C(C)=CC1=O (stereo not drawn)	1.47 h	0.533 h	< 1 min	
